## scFv variants of Ab-14 (light chain) against a SARS-CoV-2 spike peptide

Data: MIT Lincoln Laboratory AlphaSeq set, Li et al. 2023, doi:10.1038/s41467-023-39022-2, as distributed in FLAb.

Binding partner: SARS-CoV-2 spike HR2 peptide, sequence PDVDLGDISGINAS.

Ab-14 is the parent antibody, in scFv form: VH, then three GGGGS repeats, then VL. The heavy chain is unchanged in all variants.
VH: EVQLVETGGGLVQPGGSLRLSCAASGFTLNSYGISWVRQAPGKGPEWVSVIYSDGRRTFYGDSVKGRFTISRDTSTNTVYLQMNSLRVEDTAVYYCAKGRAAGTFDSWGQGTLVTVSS
VL: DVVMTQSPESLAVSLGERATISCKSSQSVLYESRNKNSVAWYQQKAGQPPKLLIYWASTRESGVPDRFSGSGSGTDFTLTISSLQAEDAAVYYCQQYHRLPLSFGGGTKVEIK

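The parent was found by panning a naive human phage display library on the peptide. The variants were designed computationally from a first round of random CDR variants and then made and measured. Several design methods are mixed in this list. In AlphaSeq, yeast of one mating type display the scFv and yeast of the other type display the target. Binding brings cells together so that they mate, and sequencing counts the barcode pairs among the diploids. A regression on co-assayed BCL2-family reference pairs converts the normalised counts of each replicate to an apparent Kd. The assay was run in six technical replicates.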

Each variant is given by its three light chain CDRs, as the data file delimits them; those of the parent are KSSQSVLYESRNKNSVA, WASTRES, QQYHRLPLS. Values are log10 of the apparent Kd in nM; lower means stronger binding. Averages over replicates are reported, and they cover detected replicates only. An entry "no signal" has no value in the source: the pair was not observed among the diploids in any replicate. This suggests poor binding but is not conclusive. A sequence measured in both rounds can read differently, since the two assays cover different ranges. In the paper, a design with two or fewer of six values counts as a poor binder. Nonspecific signal, from three strains lacking the peptide, appeared in 4% of pairings of all light chain designs, centred on 2.64 (5% of these signals below 1.59); values are not corrected for it. Also given: how often the same scFv was detected with the empty control strains. Of ten entries with the parent sequence, four were seen in most replicates (averages 0.34 to 2.37), three in one and three in none, so single entries are noisy.

| mean log10 Kd (nM) | replicates with signal | control signals | CDR-L1 | CDR-L2 | CDR-L3 |
|---|---|---|---|---|---|
| 1.69 | 6/6 | 0/18 | TLYGLSNSMSINKNSVA | EMTTREK | QQYDRLPLM |
| 0.00 | 6/6 | 1/18 | HLSDSVLYESRNQNSVA | NASTREM | QQYHRLPLN |
| 0.72 | 6/6 | 1/18 | KLLQTVMNETRNRNNVA | HMTMRED | QQYHRLPLS |
| 0.30 | 6/6 | 2/18 | TIGQIFNGESRNRNSVA | QASTRES | QSYDRLPLS |
| 1.52 | 5/6 | 0/18 | KSSQSVLYESRNKNNVA | MASTREC | QQYHRLPLS |
| 0.24 | 6/6 | 1/18 | KVSESYLLESRNKNSVA | EASTRES | QQYHRLPLS |
| 0.84 | 6/6 | 0/18 | KSAYSEGYESRNKNSVA | SASTRSS | QQYHRLPLS |
| -0.24 | 6/6 | 2/18 | KFSQSVLYESRVKNSVA | NAVTRET | QQYHRLPLS |
| 0.67 | 6/6 | 0/18 | YVSIQAAQDRNQQSSVA | GVDYREK | QQYYHLPLS |
| 0.30 | 6/6 | 0/18 | KLSQSVLLESRNWNAVA | MASTRMD | QQYHRLPLS |
| 0.43 | 6/6 | 1/18 | KWSWSWLLESRAKNSVA | NASLRES | QQYHRLPLS |
| 1.14 | 6/6 | 0/18 | KVQLGLERYNGDYSAVA | NETQKGD | QQYFQLPLG |
| 0.47 | 6/6 | 0/18 | KFSQSVLYESRNKNSVA | NASTRLS | QQYHRLPLS |
| -0.40 | 6/6 | 0/18 | KIDQSVLYESRNKNSVA | DASTRES | QQYHRLPLS |
| 0.67 | 6/6 | 1/18 | KLANVTGTEKVRGNNVA | EMETRER | QQYNRLPLS |
| 1.58 | 6/6 | 1/18 | KQSQSLLYESRNKNSVA | MASTRES | QQYHRLPLS |
| 0.98 | 2/6 | 0/18 | MVSQLMLWGLHAKYSIA | EAQTRLN | QQYDRLPLF |
| 0.24 | 6/6 | 1/18 | KVEGSHLYESRMGNSVA | NASQRED | QQYHRLPLS |
| -0.23 | 6/6 | 1/18 | KLQQSFLYESRNKNSVA | DASTRES | QQYHRLPLS |
| 1.73 | 5/6 | 0/18 | KLQQADLYESRNKNSVA | QASERES | QCYHRLPLS |
| 0.74 | 6/6 | 0/18 | KLEQSVEYESRNKNSVA | NASQRES | QQYHRLPLS |
| 2.38 | 6/6 | 0/18 | MISQLMNMGQFAINSVA | QASIRNQ | QQYDRLPLM |
| -0.12 | 6/6 | 3/18 | KSSQSVLYESDNKNSVA | GASTRES | QQYHRLPLS |
| -0.31 | 6/6 | 0/18 | KLSQMMPYESRNANSVA | NASTREE | QQYHRLPLS |
| 0.20 | 6/6 | 1/18 | KMPQSWWYESRMKQSVA | NASERES | QQYHRLPLS |
| 1.27 | 6/6 | 1/18 | KIRVHNLMFSQNESSIA | GQSVRSE | QQYYHLPLT |
| 0.09 | 6/6 | 0/18 | KLSYSVEYQDRNKNSVA | QASQRNS | QQYHRLPLS |
| 0.14 | 6/6 | 0/18 | KLVQSNLYESRNTNSVA | NASQRLD | QQYHRLPLS |
| 1.70 | 5/6 | 1/18 | MVNGIMDHLSKQTNNVA | ETETRES | QQYDRLPLS |
| -0.15 | 6/6 | 0/18 | KLECSQEYESRNTNSVA | GASTRES | QQYHRLPLS |
| 0.65 | 6/6 | 0/18 | KSSQSVLYEFPNKNSVA | GASTRCS | QQYHRLPLS |
| -0.45 | 6/6 | 0/18 | KISMLQRYESQAKNNIA | EMSRREE | QQYHRLPLS |
| 1.37 | 6/6 | 0/18 | MISVMEAPAGQQESSIA | HGGTKSE | QQYNRLPLA |
| 0.83 | 6/6 | 0/18 | KLLQNVMTEGRTRNNVA | HMDMRED | QQYWRLPLS |
| 2.61 | 4/6 | 0/18 | KSLQSVNYSSRNKNSVA | WASTRES | QQYHRLPLS |
| 1.58 | 6/6 | 2/18 | KSAQSTLQESRNKNSVA | HASTRES | QQYHRLPNS |
| 0.81 | 6/6 | 2/18 | KLGYNTGTESFRDDNIA | DVRERDE | QQYHRLPLS |
| -0.33 | 6/6 | 0/18 | KLYQSVGTMMHNKQSIA | DMERRMD | QQYHRLPLS |
| 0.38 | 6/6 | 0/18 | MISDLTMYGMRNVNSVA | DLSTRGS | QQYHRLPLS |
| 0.46 | 6/6 | 1/18 | HLGGLMTWEEKARNSIA | QQETRAE | QQYHHLPLS |
| 1.05 | 6/6 | 0/18 | KSSQSVLFQSRNKNSVA | NASTRES | QQYHRLPLS |
| 0.93 | 5/6 | 0/18 | KISQMVNYESTHIQAVA | QMSTREE | QQYFRLPLS |
| 4.35 | 1/6 | 0/18 | KSSQSVLYESKNKNSVA | GASTRES | QQYHRLPLS |
| 0.53 | 6/6 | 0/18 | KLSQQQLYESRNKNSVA | NASLRLS | QCYHRLPLS |
| 0.64 | 6/6 | 1/18 | KISISYLGEKRNKNSVA | EASTRES | QQYHRLPLS |
| -0.32 | 6/6 | 0/18 | KSSISHLYESRNENSVA | EASTREQ | QQYHRLPLS |
| -0.41 | 6/6 | 0/18 | KLSQSVLYESRNKNNVA | EASTREQ | QQYHRLPLS |
| -0.17 | 6/6 | 0/18 | AVDFSWWYESRNKNSVA | NASTREQ | QQYHRLPLS |
| 1.25 | 6/6 | 0/18 | KLSMSYRYESENKNSIA | ELVTRMS | QQYHRLPLS |
| -0.07 | 6/6 | 0/18 | KLQQSELYESRNKNSVA | DASTRES | QQYHRLPLS |
| no signal | 0/6 | 0/18 | IVSQLMLWGYHAKNSIA | EAETRIN | QQYDRLPLF |
| no signal | 0/6 | 1/18 | KLYQSVLSESRNKNSVA | WASTRES | QQYHRLPLD |
| -0.15 | 6/6 | 1/18 | KLSQSFLYESRNKNSVA | DASTRES | QDYHRLPLS |
| 1.35 | 6/6 | 0/18 | KSPQGVLYQSRNKNSVA | GASTRES | QQYHRLPLS |
| 1.72 | 3/6 | 1/18 | KSSQSVLYESRNKNSVA | HASTRES | QQYHRLPLG |
| 0.19 | 6/6 | 0/18 | KESQSWGYESRNKNSVA | GASTRES | QQYHRLPLS |
| 0.54 | 6/6 | 0/18 | KLQMSELPESRNKNSVA | WASLRET | QQYHRLPLS |
| -0.20 | 6/6 | 2/18 | VLSQSWLYEDRPKNSVA | NASTRMQ | QQYHRLPLS |

From the list, the first 2 with no signal in any replicate:

| CDR-L1 | CDR-L2 | CDR-L3 | mean log10 Kd (nM) | replicates with signal | control signals |
|---|---|---|---|---|---|
| IVSQLMLWGYHAKNSIA | EAETRIN | QQYDRLPLF | no signal | 0/6 | 0/18 |
| KLYQSVLSESRNKNSVA | WASTRES | QQYHRLPLD | no signal | 0/6 | 1/18 |